Laboratory results published in article PMC12836348, “Alanine Mutagenesis Identifies Specific Amino Acids of Nemertide Alpha‑1 Activity and Its Binding to Target Receptors” (Journal of Natural Products, 2025).

Amino acid sequences for entries named in this document (tags omitted). Chains listed by the source or under a name are the forms on record and can include a tag or linker.
UniProt P08510, with tags, fused parts or gaps DEL6-46: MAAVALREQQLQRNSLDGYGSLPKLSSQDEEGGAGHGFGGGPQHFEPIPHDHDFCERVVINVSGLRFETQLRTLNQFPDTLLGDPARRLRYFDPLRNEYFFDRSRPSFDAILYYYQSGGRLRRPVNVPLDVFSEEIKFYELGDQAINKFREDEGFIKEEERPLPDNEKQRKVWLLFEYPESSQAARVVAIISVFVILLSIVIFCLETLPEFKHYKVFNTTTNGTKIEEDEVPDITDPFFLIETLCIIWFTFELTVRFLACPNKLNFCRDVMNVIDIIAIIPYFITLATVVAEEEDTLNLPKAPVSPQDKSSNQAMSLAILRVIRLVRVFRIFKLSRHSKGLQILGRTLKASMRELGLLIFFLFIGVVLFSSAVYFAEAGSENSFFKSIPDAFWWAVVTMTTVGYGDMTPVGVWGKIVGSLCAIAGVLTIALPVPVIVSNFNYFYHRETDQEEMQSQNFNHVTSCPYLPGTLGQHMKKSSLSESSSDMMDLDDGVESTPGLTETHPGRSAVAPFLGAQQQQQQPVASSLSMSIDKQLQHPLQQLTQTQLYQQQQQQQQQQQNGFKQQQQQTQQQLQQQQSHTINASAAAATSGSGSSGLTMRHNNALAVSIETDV

Biological target: Shaker IR (Drosophila melanogaster, UniProt P08510, DEL6-46)
Assay: Ion channel panel, Shaker IR
Format: cell-based
Design: key: “+” means tested and produced effect; “–“ means tested but no effect
Conditions: S12A at 5 μM; Xenopus oocytes, n ≥ 3
From the text: To assess the concentration–response relationships, data were fitted with the Hill equation: y = 100/[1 + (EC50/[toxin])^ h ], where y is the amplitude of the toxin-induced effect (y = I 30 ms/I peak where I 30 ms is the current value at 30 ms in the presence of toxin and I peak is the peak current amplitude in control conditions), EC50 is the toxin concentration at half-maximal efficacy, [toxin] is the toxin concentration, and h is the Hill coefficient. Potassium and calcium currents were evoked by a 500 ms depolarization to the voltage corresponding to the maximal activation of the channels in control conditions from a holding potential of −90 mV. Elicited currents were sampled at 1 kHz and filtered at 0.5 kHz. […] ASIC1a currents were measured in ND96 solutions at a pH of 7.4 and 4.5, at a holding potential of −70 mV during 400 s, and the data were filtered at 20 Hz. EnaC currents were measured by clamping oocytes at a holding potential of −60 mV and perfusing with low- (1 mM) and high- (96 mM) sodium ND96. Opioid currents were measured by clamping the potential to −70 mV and changing the perfusion solution from ND96 to high-potassium (HK) solution composed of 96 mM KCl, 2 mM NaCl, 1 mM MgCl2, 1.8 mM CaCl2, and 5 mM HEPES, with a final pH of 7.5. […] TRPV1 and TRPA1 currents were continuously monitored in a perfusing ND96 solution, following a protocol at −90 mV for 400 s. […]

Structure (SMILES): CC[C@H](C)[C@@H]1NC(=O)[C@@H](NC(=O)CN)CSSC[C@@H]2NC(=O)[C@@H]3CSSC[C@@H](C(=O)N[C@@H](CC(N)=O)C(=O)N4C[C@H](O)C[C@H]4C(=O)N4C[C@H](O)C[C@H]4C(=O)N[C@@H](CC(N)=O)C(=O)N[C@@H](CCC(N)=O)C(=O)O)NC(=O)[C@H](CCCCN)NC(=O)[C@H](Cc4ccccc4)NC(=O)[C@H](CC(N)=O)NC(=O)[C@H](Cc4c[nH]c5ccccc45)NC(=O)CNC(=O)[C@H](CSSC[C@H](NC(=O)[C@H](Cc4ccccc4)NC(=O)[C@H](CO)NC(=O)CNC(=O)[C@H]([C@@H](C)O)NC(=O)[C@H](C)NC1=O)C(=O)N[C@@H]([C@@H](C)O)C(=O)N[C@@H](CC(C)C)C(=O)N[C@@H](C)C(=O)N[C@@H](CCCCN)C(=O)NCC(=O)N3)NC(=O)[C@H](CC(N)=O)NC(=O)[C@H](CCCCN)NC(=O)[C@H]([C@@H](C)O)NC2=O [Peptide S12A]
- effect on Shaker IR: –
